Amino acid sequences for entries named in this document (tags omitted).
UniProt O14920, whole entry: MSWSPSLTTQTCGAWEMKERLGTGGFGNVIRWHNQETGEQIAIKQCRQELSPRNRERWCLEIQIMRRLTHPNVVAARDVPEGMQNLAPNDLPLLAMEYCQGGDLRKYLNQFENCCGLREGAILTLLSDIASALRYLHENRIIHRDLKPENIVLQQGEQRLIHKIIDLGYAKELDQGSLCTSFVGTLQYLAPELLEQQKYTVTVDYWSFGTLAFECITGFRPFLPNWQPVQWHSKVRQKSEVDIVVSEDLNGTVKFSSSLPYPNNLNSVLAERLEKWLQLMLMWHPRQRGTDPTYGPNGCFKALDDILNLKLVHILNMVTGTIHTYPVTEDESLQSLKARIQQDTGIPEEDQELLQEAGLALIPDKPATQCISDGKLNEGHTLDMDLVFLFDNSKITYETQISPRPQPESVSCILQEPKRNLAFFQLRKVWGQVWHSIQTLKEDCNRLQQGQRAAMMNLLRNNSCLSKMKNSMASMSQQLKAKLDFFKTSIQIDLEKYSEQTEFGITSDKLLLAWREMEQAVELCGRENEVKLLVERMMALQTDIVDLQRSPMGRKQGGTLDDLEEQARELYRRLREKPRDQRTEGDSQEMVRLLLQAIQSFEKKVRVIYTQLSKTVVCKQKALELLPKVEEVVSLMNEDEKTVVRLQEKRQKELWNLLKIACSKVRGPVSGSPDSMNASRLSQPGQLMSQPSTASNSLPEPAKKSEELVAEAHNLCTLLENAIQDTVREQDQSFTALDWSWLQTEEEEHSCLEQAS
UniProt O15111, whole entry: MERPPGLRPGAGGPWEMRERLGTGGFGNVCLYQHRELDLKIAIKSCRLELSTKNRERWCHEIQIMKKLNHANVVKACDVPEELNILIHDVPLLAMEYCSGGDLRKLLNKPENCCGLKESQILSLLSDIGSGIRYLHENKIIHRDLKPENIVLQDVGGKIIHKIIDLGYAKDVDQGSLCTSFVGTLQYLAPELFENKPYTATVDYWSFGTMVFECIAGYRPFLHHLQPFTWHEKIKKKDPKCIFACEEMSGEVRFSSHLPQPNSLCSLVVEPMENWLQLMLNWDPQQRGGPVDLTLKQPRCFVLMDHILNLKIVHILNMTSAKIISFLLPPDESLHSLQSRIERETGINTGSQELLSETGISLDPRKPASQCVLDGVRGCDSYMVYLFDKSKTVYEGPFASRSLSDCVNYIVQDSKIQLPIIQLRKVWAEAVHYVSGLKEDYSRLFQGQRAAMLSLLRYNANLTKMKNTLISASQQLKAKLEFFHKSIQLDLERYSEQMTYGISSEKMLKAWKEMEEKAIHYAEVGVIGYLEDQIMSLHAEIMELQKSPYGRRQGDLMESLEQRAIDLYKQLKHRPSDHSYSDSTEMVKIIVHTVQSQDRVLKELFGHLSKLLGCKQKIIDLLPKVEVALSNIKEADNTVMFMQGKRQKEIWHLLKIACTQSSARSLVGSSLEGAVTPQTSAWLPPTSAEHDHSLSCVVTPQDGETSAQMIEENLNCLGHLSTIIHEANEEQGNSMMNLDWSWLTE
UniProt Q9Y6K9, whole entry: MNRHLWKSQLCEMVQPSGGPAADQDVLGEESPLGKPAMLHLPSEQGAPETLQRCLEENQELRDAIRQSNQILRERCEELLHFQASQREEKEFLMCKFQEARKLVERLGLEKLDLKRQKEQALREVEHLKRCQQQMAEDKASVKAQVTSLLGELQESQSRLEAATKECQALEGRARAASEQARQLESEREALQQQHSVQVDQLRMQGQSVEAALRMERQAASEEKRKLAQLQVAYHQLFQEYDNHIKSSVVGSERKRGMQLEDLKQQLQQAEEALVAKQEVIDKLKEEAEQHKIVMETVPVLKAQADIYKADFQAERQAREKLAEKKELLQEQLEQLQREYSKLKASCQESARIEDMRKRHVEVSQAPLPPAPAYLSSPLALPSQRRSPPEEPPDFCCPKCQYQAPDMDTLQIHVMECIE

In patent publication US20060194819A1, “Activation specific inhibitors of nf-kb and method of treating inflammatory processes in cardio-vascular diseases” (PROCORDE GMBH, priority 2003, published 2006):

Target: IKK-complex (Homo sapiens, UniProt O14920+O15111+Q9Y6K9)
Test: In vitro/cell free kinase assay: IKK-complex immunoprecipitated from TNF alpha stimulated HeLa cells, drugs added afterwards, alpha screen
Settings: increasing concentrations on isolated IKK complex
Method: In vitro/cell free kinase assay protocol: HeLa cells were maintained in Dulbecco's modified Eagle's medium (Invitrogen) supplemented with 10% fetal bovine serum, 2 mM L-glutamine, penicillin (50 units/ml) and streptomycin (50 μg/ml). 24 h before treatment with TNF alpha HeLa cells were plated at a density of 1×10^7 per well in 175-mm cell culture dishes to 90% confluences.
The cells were stimulated with 20 ng/ml TNF alpha (Roche) without drugs. After 7 min the cells were washed twice with ice cold PBS followed by scraping and transferring into a 1.5 ml micro centrifuge tube. […] 6.6 μl of detection-buffer (20 mM Hepes pH 7.5, 100 mM NaCl, 1% Tween, 0.1 mM BSA, 50 μg/ml Protein A-Acceptor beads, 250 μg/ml Streptavidin-Donor beads (both Perkin-Elmer), 4 nM anti-phospho-IKBα-antibody (Santa Cruz Biotechnology) was dispensed to each well. After incubation for 1.5 h the plate was measured by alpha screen reader (Perkin Elmer).

CCOC(=O)C1=C(C)N=c2sc(=Cc3ccc(-c4cccc(C(=O)O)c4)o3)c(=O)n2C1c1cc(OC)c(OC)cc1Br (stereo not shown)
inhibition of IKK activity in cell-free assay: dose-dependently inhibited
